{
  "source": "patent US20160052983A1",
  "target": "GLP-1 receptor (DiscoveRx PathHunter eXpress GLP-1 receptor cAMP assay cells) (UniProt P43220)",
  "test": "cell-based or functional assay",
  "data": [
    {"substance": "unmodified exendin-4 (from UniProt P26349) (peptide)", "values": [
      {"measurement": "GLP-1 receptor cAMP assay (DiscoveRx PathHunter eXpress), EC50", "value": 0.07, "unit": "nM"}
    ]}
  ]
}
